Experimental data as given in PubChem BioAssay AID2023 (NMMLSC, 2009).
This is a selection; strong and weak results do not stand in their true shares. Calls of active or inactive are those of the source.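 Rule for the calls: active = GFP response vs DMSO above a set limit, about the screen mean plus 3 SD (cut at about 150% in these data); inconclusive = under 70 cell events counted for the yeast strain; inactive = the rest.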

Test: TOR pathway LAP4-GFP level changes – S. cerevisiae, multiplex flow cytometry, MLPCN library, primary screen (AID 2023)
Conditions: 3 h, at 10 µM, active compounds read high, median GFP as percent of DMSO wells

Structure (SMILES) | GFP response vs DMSO
CN(C(=O)Cc1ccc(Cl)c(Cl)c1)[C@@H]1CCCC[C@H]1N1CCCC1 | inactive: 121%
CC(C)/C=N\N=C(\N)N[N+](=O)[O-] | inactive: 102%
O=[As](O)(c1ccccc1Br)c1ccccc1Br | inactive: 95.2%
CC1(CBr)Cn2c(nc3ccccc3c2=O)S1 (configuration not stated) | inactive: 103%
COc1ccccc1CNC(=O)COC(=O)C(O)(c1ccccc1)c1ccccc1 | inactive: 98.5%
Clc1n[nH]nc1-c1nn[nH][15n]1 | inactive: 96.9%
CC(C)(C)C(=O)NC(Sc1ncccn1)C(Cl)(Cl)Cl (configuration not stated) | inactive: 102%
CCC1=CC2Cc3nc4ccc(Cl)cc4c(N)c3C(C1)C2 (configuration not stated) | inactive: 94.4%
O=P1(Nc2ccccn2)COc2ccccc2OC1 | inactive: 99.9%
CCOP(=O)(NC(=NC(C)c1ccccc1)NC(C)c1ccccc1)OCC (configuration not stated) | inactive: 87.5%
CN(CCCl)Cc1cc(Cl)c(NC2=NCCN2)c(Cl)c1 | inactive: 115%
CCOP(=O)(Nc1ccc(C)cn1)OCC | inactive: 99.8%
Nc1cccc([As](=O)(O)c2ccccc2)c1 | inactive: 89%
NS(=O)(=O)c1cccc(NC(=O)COC(=O)C(O)(c2ccccc2)c2ccccc2)c1 | inactive: 96.9%
O=P1(Nc2ccc(Br)cn2)COc2ccccc2OC1 | inactive: 94.7%
O=[As](O)(c1cccs1)c1cccs1 | inactive: 94.6%
Cc1ccc(OCC(=O)OC2CN3CCC2CC3)cc1 (configuration not stated) | inactive: 98.8%
O=P1(Nc2ncccn2)COc2ccccc2OC1 | inactive: 98.8%
CN(C)C1(CNC(=O)c2ccc(S(C)(=O)=O)cc2)CCCCC1 | inactive: 94.3%
O=C(/C=C/c1ccccc1)OC1CN2CCC1CC2 (configuration not stated) | inactive: 101%
Cc1nn(-c2ccccc2)c2c1P(=O)(N1CCOCC1)N(C)C(c1ccccc1)=N2 (configuration not stated) | inactive: 102%
Cc1ccc(C(=O)OC2CN3CCC2CC3)cc1 (configuration not stated) | inactive: 107%
CC1CCC(C(C)C)C(OP(=O)(Nc2ccccn2)c2ccccc2)C1 (configuration not stated) | inactive: 102%
N#CCCN(C(=O)COC(=O)C(O)(c1ccccc1)c1ccccc1)c1ccc(F)cc1 | inactive: 101%
CCOP1(=S)c2c(C)nn(CCC#N)c2N=C(c2ccc(F)cc2)N1C (configuration not stated) | inactive: 98.3%
CN(C(=O)Cc1ccccc1)[C@@H]1CC[C@]2(CCCO2)C[C@H]1N1CCCC1 | inactive: 128%

Structure (SMILES) | GFP response vs DMSO
CN(C)C(=O)c1cc([N+](=O)[O-])cc2c1-c1c(cc([N+](=O)[O-])cc1[N+](=O)[O-])C2=O | inactive: 138%
O=[N+]([O-])c1ccc2c(c1)nnn2O | inactive: 103%
CN(C(=O)Cc1ccc(Cl)c(Cl)c1)[C@H]1CC[C@@]2(CCCO2)C[C@@H]1N1CCCC1 | inactive: 108%
NC(=O)Nc1ccc([As](=O)(O)O)cc1 | inactive: 104%
O=C(O)COc1ccc([As](=O)(O)O)cc1[N+](=O)[O-] | inactive: 116%
Nc1ccccc1[As](=O)(O)c1ccccc1 | inactive: 98.4%
CCOP1(=S)c2c(C)nn(CCC#N)c2N=C(c2ccccc2F)N1C (configuration not stated) | inactive: 101%
O=P(Nc1nccs1)(c1ccccc1)c1nc2ccccc2s1 (configuration not stated) | active: 151%
O=P(Nc1nccs1)(Oc1ccccc1)Oc1ccccc1 | inactive: 96.6%
CS(=O)(=O)c1cc([N+](=O)[O-])c2no[n+]([O-])c2c1 | inactive: 115%
COc1cc(C2NCCC3(OCCO3)C2(C)C)cc(OC)c1OC (configuration not stated) | inactive: 92.1%
CCOP(=O)(Nc1cccc2ccccc12)OCC | inactive: 125%
Nc1cccc2c([As](=O)(O)O)cccc12 | inactive: 96.5%
Cc1ccc(NCCc2c([N+](=O)[O-])cc([N+](=O)[O-])cc2[N+](=O)[O-])cc1 | inactive: 101%
CCCOP(=S)(Nc1nc(N)cc(=O)[nH]1)OCCC | inactive: 97.2%
O=[As](O)(c1cccc(O)c1)c1cccc(O)c1 | inactive: 91.2%
Cc1cccc(OCC(=O)OC2CN3CCC2CC3)c1 (configuration not stated) | inactive: 100%
O=C(OC1CN2CCC1CC2)c1ccc(Cl)cc1 (configuration not stated) | inactive: 96.5%
COc1cc(C(=O)NCC2(N3CCOCC3)CCCCC2)cc(Cl)c1OC(C)C | inactive: 96.8%
O=[As](O)(O)c1cccnc1 | inactive: 106%
CS(=O)(=O)c1ccc(Cl)c(NC(=O)COC(=O)C(O)(c2ccccc2)c2ccccc2)c1 | inactive: 100%
COc1ccc(N/C(=N/P(=O)(N2CCOCC2)N2CCOCC2)N2CCOCC2)cc1 | inactive: 104%
COc1ccc2nc(NP(=O)(c3ccccc3)c3ccccc3)sc2c1 | inactive: 111%
COc1cc(I)ccc1[As](=O)(O)O | inactive: 112%
Cc1c2c(nc3ccccc13)SC(C(Cl)Cl)C2 (configuration not stated) | inactive: 103%
O=C(OC1CN2CCC1CC2)C12CC3CC(CC(C3)C1)C2 (configuration not stated) | inactive: 109%

Structure (SMILES) | GFP response vs DMSO
Cc1cc(=O)[nH]c(N[N+](=O)[O-])n1 | inactive: 94.2%
CCN(CC)C(=S)SC(NC=O)C(Cl)(Cl)Cl (configuration not stated) | inactive: 112%
CC(C)NC(=O)NP(=O)(Oc1ccccc1)Oc1ccccc1 | inactive: 93.1%
O=[N+]([O-])c1cc([N+](=O)[O-])c(-c2ccn[nH]2)s1 | inactive: 113%
ClCCSc1nnc(-c2cccnc2)o1 | inactive: 88%
CC(C)c1ccc(OP(=O)(Nc2ccccn2)Oc2ccccc2F)cc1 (configuration not stated) | inactive: 106%
Cc1ccc(OP(=O)(Nc2ccc([N+](=O)[O-])cn2)Oc2ccc(C)cc2)cc1 | inactive: 94%
Cc1ccc2nc3c(c(C)c2c1)CC(C(Cl)Cl)S3 (configuration not stated) | inactive: 98.1%
O=[As](O)(c1ccc(O)cc1)c1ccccc1O | inactive: 108%
C[As](=O)(O)c1cccc(C(=O)O)c1 | inactive: 95%
COc1cc(C(=O)NCC2(N3CCOCC3)CCCCC2)ccc1OCC(C)C | inactive: 98.3%
Cc1cc(SC(NC=O)C(Cl)(Cl)Cl)ncn1 (configuration not stated) | inactive: 94.6%
O=P(Nc1ccccn1)(c1cccc2ccccc12)c1cccc2ccccc12 | inactive: 88%
O=[N+]([O-])c1ccc(Nc2ccc(Oc3ccc([N+](=O)[O-])cc3[N+](=O)[O-])cc2)c([N+](=O)[O-])c1 | inactive: 87.6%
Cc1cc(SC(NC(=O)c2ccccc2)C(Cl)(Cl)Cl)nc(C(C)C)n1 (configuration not stated) | inactive: 90.9%
CCOC(=O)Nc1ccc([As](=O)(O)O)c(O)c1 | inactive: 92.4%
CCC(C)N(CC(C)C)C(=S)SC(NC(C)=O)C(Cl)(Cl)Cl (configuration not stated) | inactive: 99.5%
O=C(OC1CN2CCC1CC2)c1cccc([N+](=O)[O-])c1 (configuration not stated) | inactive: 97.6%
CCOC(=O)c1ccc(NC(=O)C(C)(CCl)SC)cc1 (configuration not stated) | inactive: 109%
O=C(COc1ccccc1)OC1CN2CCC1CC2 (configuration not stated) | inactive: 87.1%
O=C(Nc1ccncc1[N+](=O)[O-])c1ccc([N+](=O)[O-])cc1[N+](=O)[O-] | inactive: 103%
COP1(=S)c2c(C)nn(CCC#N)c2N=C(c2ccc(F)cc2)N1C (configuration not stated) | inactive: 105%
CC1CCN(C(=O)Oc2c(Cl)cc(Cl)c3cccnc23)CC1 | inactive: 96%
CC(C)=N/N=C(\N)N[N+](=O)[O-] | inactive: 101%
CN(C)C(=O)OCCc1n(C)cc[n+]1C | inactive: 98.2%
CCN(/C(=N/P(=O)(N1CCOCC1)N1CCOCC1)N1CCOCC1)c1ccc(OC)cc1 | inactive: 85.6%

Structure (SMILES) | GFP response vs DMSO
Nc1ccc([As](=O)(O)c2ccc(N)cc2)cc1 | inactive: 106%
C[N+]1=C2C=CC=CC=C2SC12C([N+](=O)[O-])=CC([N+](=O)[O-])=C[C-]2[N+](=O)[O-] (configuration not stated) | active: 181%
Cc1ccc(NP(=O)(Oc2ccccc2)Oc2ccccc2)nc1 | inactive: 95%
O=[N+]([O-])c1cc([N+](=O)[O-])c(CCNc2ccccc2)c([N+](=O)[O-])c1 | inactive: 145%
CCc1nc2c(n1)c1c(non1O)c1c2no[n+]1[O-] | inactive: 106%
CC(=O)N1C2C3N(C(C)=O)C1C1N(C(C)=O)C(C(N1C(C)=O)N3C(C)=O)N2C(C)=O | inactive: 101%
O=[N+]([O-])c1cccc2n[nH]nc12 | inactive: 96.9%
COc1ccc(C2=NCC(CBr)S2)cc1 (configuration not stated) | inactive: 92.7%
O=C(O)CNc1ccc([As](=O)(O)O)cc1 | inactive: 89.2%
O=[N+]([O-])c1cccc(NC2=NCC(CBr)S2)c1 (configuration not stated) | inactive: 126%
O=[N+]([O-])c1ncn(CCn2ncnc2[N+](=O)[O-])n1 | inactive: 103%
CC(C)(C)C(=O)NC(Sc1ccncn1)C(Cl)(Cl)Cl (configuration not stated) | inactive: 101%
O=C(Nc1cc([As](=O)(O)O)ccc1O)c1ccccc1 | inactive: 80.5%
Nc1cccc2ccc([As](=O)(O)O)cc12 | inactive: 94.2%
CCN(N=Nc1nonc1N)c1nonc1N | inactive: 92.6%
O=[N+]([O-])c1cc([N+](=O)[O-])c(CCN2CCOCC2)c([N+](=O)[O-])c1 | inactive: 87.7%
CCOP(=O)(Nc1ccccc1)OCC | inactive: 97.1%
Cc1cc(SC(NC(=O)c2ccc(F)cc2)C(Cl)(Cl)Cl)ncn1 (configuration not stated) | inactive: 87.3%
CN(C(=O)Cc1ccc(Cl)c(Cl)c1)[C@H]1CCCC[C@@H]1N1CCCC1 | inactive: 111%
O=P(Nc1nc2ccc(Cl)cc2s1)(c1ccccc1)c1ccccc1 | inactive: 102%
O=C(O)c1ccccc1[As](=O)(O)O | inactive: 93.6%
CC(=O)Nc1ccc([As](=O)(O)O)cc1 | inactive: 91.5%
Oc1ccccc1CNc1ccccn1 | inactive: 94.3%
Cc1c2non([O-])c-2c(C)[n+](=O)[n+]1[O-] | inactive: 123%
